The target in assay [1] is T1, Serotonin 2 (5-HT2) receptor (Rattus norvegicus, UniProt P30994+P08909+P14842). The assay is described as follows: Compound was evaluated for binding affinity towards 5-hydroxytryptamine 2 receptor in rat anterior cortex using [125I]DOI as radioligand. The essentials: (§1)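 Competition binding against the named radioligand on the native tissue membranes shown, radioligand at roughly its K_D for the binding system; procedures otherwise follow earlier published methods.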

By UniProt entry, the sequences of proteins in these tests, tags left out. Where a name states a change or a piece, a line headed by the entry shows the natural chain unless it says otherwise.
UniProt P30994: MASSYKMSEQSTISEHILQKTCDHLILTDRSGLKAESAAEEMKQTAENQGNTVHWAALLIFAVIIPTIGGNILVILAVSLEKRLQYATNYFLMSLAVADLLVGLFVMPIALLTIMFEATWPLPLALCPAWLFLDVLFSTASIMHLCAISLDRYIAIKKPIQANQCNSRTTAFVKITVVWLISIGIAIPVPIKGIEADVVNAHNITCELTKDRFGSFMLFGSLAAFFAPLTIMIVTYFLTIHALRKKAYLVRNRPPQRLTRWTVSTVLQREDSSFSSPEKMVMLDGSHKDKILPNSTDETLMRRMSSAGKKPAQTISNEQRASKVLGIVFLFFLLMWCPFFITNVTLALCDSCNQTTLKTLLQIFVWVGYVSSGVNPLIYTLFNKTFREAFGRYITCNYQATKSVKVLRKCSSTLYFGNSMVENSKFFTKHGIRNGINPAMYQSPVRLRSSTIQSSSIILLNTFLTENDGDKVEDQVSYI
UniProt P08909: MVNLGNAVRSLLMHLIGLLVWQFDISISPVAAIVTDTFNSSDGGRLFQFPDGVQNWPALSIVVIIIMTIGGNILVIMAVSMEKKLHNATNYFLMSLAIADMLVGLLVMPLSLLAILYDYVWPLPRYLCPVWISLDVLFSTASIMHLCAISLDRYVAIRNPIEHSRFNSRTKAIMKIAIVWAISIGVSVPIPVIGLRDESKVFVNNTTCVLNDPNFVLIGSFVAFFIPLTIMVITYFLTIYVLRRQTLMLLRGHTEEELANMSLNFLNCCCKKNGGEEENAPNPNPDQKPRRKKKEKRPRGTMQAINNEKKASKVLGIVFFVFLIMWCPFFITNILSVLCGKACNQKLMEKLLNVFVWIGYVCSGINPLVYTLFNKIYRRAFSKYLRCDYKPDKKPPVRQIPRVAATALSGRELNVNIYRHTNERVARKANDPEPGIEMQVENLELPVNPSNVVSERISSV
UniProt P14842: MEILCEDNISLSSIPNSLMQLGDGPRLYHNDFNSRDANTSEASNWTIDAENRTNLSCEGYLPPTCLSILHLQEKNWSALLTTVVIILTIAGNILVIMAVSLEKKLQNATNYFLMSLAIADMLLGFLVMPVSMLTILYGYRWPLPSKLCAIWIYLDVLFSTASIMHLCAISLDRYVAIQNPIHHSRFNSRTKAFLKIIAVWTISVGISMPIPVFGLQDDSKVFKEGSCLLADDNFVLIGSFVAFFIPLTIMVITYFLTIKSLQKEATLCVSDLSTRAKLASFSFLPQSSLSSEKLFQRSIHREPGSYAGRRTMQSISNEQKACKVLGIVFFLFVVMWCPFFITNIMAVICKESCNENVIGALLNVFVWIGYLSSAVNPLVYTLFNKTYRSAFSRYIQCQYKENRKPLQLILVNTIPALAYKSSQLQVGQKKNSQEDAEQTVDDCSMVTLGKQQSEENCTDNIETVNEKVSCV

Assay [2] has as its target T1, Serotonin 2 (5-HT2) receptor. As to the kind of experiment: Compound was evaluated for binding affinity towards 5-hydroxytryptamine 2 receptor in rat anterior cortex using [3H]ketanserin as radioligand. The essentials: as §1

Broadly, the IC50 is the concentration that inhibits the measured activity by half. A high value points to a need for much substance. As to `COc1ccc2[nH]cc(CCN(C)C)c2c1` [MEBUFOTENIN], the IC50 in assay [1] is given as 130 nM; in assay [2] it was 1800 nM.

Source of the values: ChEMBL document CHEMBL1125301, “1-(2-Aminoethyl)-3-methyl-8,9-dihydropyrano[3,2-e]indole: a rotationally restricted phenolic analog of the neurotransmitter serotonin and agonist selective for serotonin (5-HT2-type) receptors” (J Med Chem, 1992).
